# Values of other authors in patent US8530423B2, “Anxiolytic compositions containing αs1-casein-derived peptides” (Universite de Lorraine, priority 2008, dated 2013).
# Molecular target: angiotensin-I converting enzyme (Homo sapiens, UniProt P12821)
# Settings: literature (MARUYAMA et al.); cited from earlier work
substance,measurement,value
"23-24: αs1-casein peptide 23-24 (FF; UniProt P02662 38-39, looked up, fragment)",angiotensin-I converting enzyme inhibition,angiotensin-I converting enzyme inhibitors
